Molecular target: T1, OA/TAT (octopamine/tyramine transporter) (Trichoplusia ni, UniProt Q95VZ4, D309A/R312W)
T1 sequence (Q95VZ4 75-744 D309A/R312W): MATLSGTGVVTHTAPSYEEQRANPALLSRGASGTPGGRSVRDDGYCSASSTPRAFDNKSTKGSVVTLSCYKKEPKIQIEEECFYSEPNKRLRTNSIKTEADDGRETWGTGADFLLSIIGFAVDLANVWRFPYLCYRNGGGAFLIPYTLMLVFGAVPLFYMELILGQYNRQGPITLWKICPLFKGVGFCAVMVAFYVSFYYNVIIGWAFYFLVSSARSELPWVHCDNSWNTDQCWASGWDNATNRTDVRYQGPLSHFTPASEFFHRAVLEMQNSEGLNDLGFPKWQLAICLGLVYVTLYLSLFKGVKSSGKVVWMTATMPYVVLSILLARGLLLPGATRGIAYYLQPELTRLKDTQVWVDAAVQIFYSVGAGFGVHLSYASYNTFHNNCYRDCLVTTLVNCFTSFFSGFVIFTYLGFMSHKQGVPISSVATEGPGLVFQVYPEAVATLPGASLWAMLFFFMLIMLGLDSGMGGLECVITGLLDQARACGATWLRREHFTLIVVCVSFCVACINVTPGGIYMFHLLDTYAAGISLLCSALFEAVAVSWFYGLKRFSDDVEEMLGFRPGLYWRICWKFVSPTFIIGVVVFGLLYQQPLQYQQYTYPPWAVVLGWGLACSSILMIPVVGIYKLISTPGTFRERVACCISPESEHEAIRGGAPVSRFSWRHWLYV
Experiment: 3H-dopamine uptake by OA/TAT expressed in baculovirus-infected Sf21 insect cells (transport assay)
Assay type: cell-based
Conditions: read-out: % Inhibition of 3H-Dopamine uptake by OA/TAT

## CN(C)CCCN1c2ccccc2Sc2ccc(Cl)cc21 [Chlorpromazine]
  inhibition at 10 µM: 41%
